Molecules are shown by their SMILES.

Protein sequences, listed by entry. Tags and fused reporters are not part of them.
UniProt P33535, whole entry: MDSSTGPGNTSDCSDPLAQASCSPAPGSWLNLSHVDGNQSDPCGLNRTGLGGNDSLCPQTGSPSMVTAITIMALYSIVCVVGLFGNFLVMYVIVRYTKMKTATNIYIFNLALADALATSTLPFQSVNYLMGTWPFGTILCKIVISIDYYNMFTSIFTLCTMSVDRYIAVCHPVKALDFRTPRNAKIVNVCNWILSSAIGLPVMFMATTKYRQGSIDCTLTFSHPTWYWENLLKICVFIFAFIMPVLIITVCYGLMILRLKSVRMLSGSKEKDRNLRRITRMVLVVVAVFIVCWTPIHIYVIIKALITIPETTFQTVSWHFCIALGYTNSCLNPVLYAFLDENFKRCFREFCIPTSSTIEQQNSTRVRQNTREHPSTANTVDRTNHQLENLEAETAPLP

In the test the target is μ-opioid receptor (MOR) (Rattus norvegicus, UniProt P33535). Description: biochemical. As to the method: The binding affinity of cyclic and linear enkephalin analogs for μ-opioid receptor (MOR) was determined in competitive radioligand binding assays using membrane preparations from rat brain homogenates. The homogenates were obtained as described previously (Matalińska et al. [2020]). The membrane preparations were incubated at 25 °C for 60 min in the presence of 1.0 nM [^3H]DAMGO (obtained from PerkinElmer, USA) and the set of concentrations of the assayed compound proper for a particular compound and type of determination (screening or a full-displacement curve).
For screening purposes, we performed the experiments with the following concentrations of the compounds tested: 30 μM, 10 μM, and 3 μM. For full-displacement curves, 10 concentrations ranging either from 0.03 nM to 1 μM or from 300 nM to 30 μM were used. The range was chosen for the single compounds in a manner such that the expected IC50 would fall in the middle of the range. In the case of several experiments, only five concentrations were used (they are marked in the results table).
Non-specific binding was measured in the presence of 10 μM naloxone. […] Radioactivity was measured in a scintillation counter MicroBeta LS, Trilux (PerkinElmer, USA). Displacement curves were drawn and the mean IC50 values were determined with SEMs (GraphPad Prism v. 5.0, San Diego, CA).

As for `CC(C)C[C@H](NC(=O)[C@H](Cc1ccccc1)NC(=O)CNC(=O)CNC(=O)[C@@H](N)Cc1ccc(O)cc1)C(N)=O` [[Leu^5]enk-NH2, H-Tyr-Gly-Gly-Phe-Leu-NH2, reference compound], half-maximal inhibition (IC50) required 6.1 ± 1.4 nM.
